The record followed here is patent publication US20250318524A1, “ANTIMICROBIAL COATING COMPOSITION AND METHOD OF USE THEREOF” (priority 2024, published 2025).

A short description of the data set: Selection of antimicrobial agents: solubility in aqueous solution, stability, compatibility with the coating composition.

In the case of chlorhexidine acetate, the compatibility with formulation entry is listed as “compatibility with formulation” and the solubility in water entry was “good water solubility”.
